scFv variants of Ab-14 (light chain) against a SARS-CoV-2 spike peptide

The measurements come from Li et al. 2023 (doi:10.1038/s41467-023-39022-2) through the FLAb antibody collection.

Target peptide (SARS-CoV-2 spike, HR2 region): PDVDLGDISGINAS

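The starting antibody came from a phage panning campaign against this peptide. The variants were designed computationally from a first round of random CDR variants and then made and measured. Their group label is 14L_En_Gen (En: ensemble of fine-tuned language models; Gen: genetic algorithm). The assay is AlphaSeq: two haploid yeast populations carry antibody and antigen on their surface. After mating in shaken culture at 30 °C for 16 h, diploids were selected and their barcode pairs sequenced. A regression on co-assayed BCL2-family reference pairs converts the normalised counts of each replicate to an apparent Kd. Each pool was mated in six replicate cultures.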

The variants keep the heavy chain, the linker and the frameworks of Ab-14 (scFv order VH, a (GGGGS)3 linker, VL).
VH: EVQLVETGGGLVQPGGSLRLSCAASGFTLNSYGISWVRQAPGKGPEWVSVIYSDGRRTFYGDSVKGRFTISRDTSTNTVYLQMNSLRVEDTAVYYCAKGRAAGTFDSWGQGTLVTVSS
VL: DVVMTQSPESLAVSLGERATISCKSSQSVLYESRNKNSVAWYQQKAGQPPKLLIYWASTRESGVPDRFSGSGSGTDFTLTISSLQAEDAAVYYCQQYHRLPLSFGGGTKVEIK

Each variant is given by its three light chain CDRs, as the data file delimits them; those of the parent are KSSQSVLYESRNKNSVA, WASTRES, QQYHRLPLS.
Affinities are written as log10 Kd with Kd in nM; a lower number is a better binder.
A mean of the replicates is given; it leaves out those without a signal.
Where no diploid with the target was found in that replicate, the entry reads "n.d.": below detection, most likely a poor binder, though not proof of it.
Three control strains display no target. For all light chain designs, 4% of the pairings with them gave a signal, with a median of 2.64 and one signal in twenty below 1.59, so weak values seen in few replicates may be background. For each scFv, signals with the empty controls are counted beside the result, with their mean in brackets.

{"CDR-L1": "MVTQMAMSGMTNKRSVA", "CDR-L2": "NAETREY", "CDR-L3": "QQYHRLPLI", "log10 Kd (nM) by replicate": "0.53 / 0.65 / 0.83 / 0.41 / 0.80 / 1.00", "log10 Kd (nM), mean": "0.70", "control signals": "0/18"}
{"CDR-L1": "MISQLMNMGQFAINSVA", "CDR-L2": "QASLRNE", "CDR-L3": "QQYDRLPLA", "log10 Kd (nM) by replicate": "1.24 / 1.69 / 2.54 / 0.67 / 2.03 / 0.74", "log10 Kd (nM), mean": "1.48", "control signals": "1/18 (1.38)"}
{"CDR-L1": "KLTSVTGQEKVRGNNVA", "CDR-L2": "EMETREN", "CDR-L3": "QQYDRLPLS", "log10 Kd (nM) by replicate": "0.89 / 1.07 / 0.79 / 0.91 / 0.82 / 1.24", "log10 Kd (nM), mean": "0.95", "control signals": "3/18 (3.62)"}
{"CDR-L1": "MIYGMDRELGRAANSIA", "CDR-L2": "DNVTRYD", "CDR-L3": "QQYERLPLS", "log10 Kd (nM) by replicate": "n.d. / 2.22 / 2.22 / 1.98 / 2.07 / 2.03", "log10 Kd (nM), mean": "2.10", "control signals": "2/18 (2.37)"}
{"CDR-L1": "KISQMVRVGSTKQNSIA", "CDR-L2": "EEATRAD", "CDR-L3": "QQYHRLPLS", "log10 Kd (nM) by replicate": "0.56 / 0.73 / 0.70 / 0.56 / 0.75 / 0.81", "log10 Kd (nM), mean": "0.68", "control signals": "4/18 (2.96)"}
{"CDR-L1": "HLKQVLNGVNKKSNSVA", "CDR-L2": "HMNTREE", "CDR-L3": "QQYDHLPLI", "log10 Kd (nM) by replicate": "0.77 / 0.49 / 0.66 / 0.57 / 0.62 / 0.70", "log10 Kd (nM), mean": "0.63", "control signals": "2/18 (3.56)"}
{"CDR-L1": "MISQLYNMGTFAINSVA", "CDR-L2": "QASVRNE", "CDR-L3": "QQYDRLPLT", "log10 Kd (nM) by replicate": "n.d. / 2.42 / n.d. / n.d. / 2.84 / 1.61", "log10 Kd (nM), mean": "2.29", "control signals": "1/18 (2.15)"}
{"CDR-L1": "KIGMTLNQLYEKANNVA", "CDR-L2": "DLVAREN", "CDR-L3": "QQYHRLPLS", "log10 Kd (nM) by replicate": "0.29 / 0.56 / 1.36 / 0.80 / 0.22 / 0.91", "log10 Kd (nM), mean": "0.69", "control signals": "1/18 (2.26)"}
{"CDR-L1": "KIGATLNTLMHQKNNVA", "CDR-L2": "DLVMRES", "CDR-L3": "QQYHRLPLS", "log10 Kd (nM) by replicate": "0.34 / 0.15 / 0.24 / 0.06 / 0.22 / 0.35", "log10 Kd (nM), mean": "0.23", "control signals": "1/18 (5.04)"}
{"CDR-L1": "TISQMTSLFSQSINNVA", "CDR-L2": "EVSTREN", "CDR-L3": "QQYDRLPLA", "log10 Kd (nM) by replicate": "0.92 / 0.90 / 0.88 / 0.81 / 0.99 / 1.07", "log10 Kd (nM), mean": "0.93", "control signals": "1/18 (3.94)"}
{"CDR-L1": "MLSGVLHMLGQKKNSIA", "CDR-L2": "DLVMRAN", "CDR-L3": "QQYHRLPLM", "log10 Kd (nM) by replicate": "0.96 / 1.98 / 3.08 / 2.14 / 0.94 / 2.78", "log10 Kd (nM), mean": "1.98", "control signals": "1/18 (1.56)"}
{"CDR-L1": "IVSQLMIWGMHVKNSIA", "CDR-L2": "EAQTRVN", "CDR-L3": "QQYDRLPLI", "log10 Kd (nM) by replicate": "n.d. / n.d. / n.d. / n.d. / n.d. / n.d.", "log10 Kd (nM), mean": "n.d.", "control signals": "0/18"}
{"CDR-L1": "MLSEVLHMLGVMKNSIA", "CDR-L2": "DLVLRAN", "CDR-L3": "QQYHRLPLF", "log10 Kd (nM) by replicate": "n.d. / n.d. / n.d. / n.d. / n.d. / n.d.", "log10 Kd (nM), mean": "n.d.", "control signals": "1/18 (0.42)"}
{"CDR-L1": "MISQVMNTLTRNGNNVA", "CDR-L2": "DLTNRED", "CDR-L3": "QQYFRLPLS", "log10 Kd (nM) by replicate": "1.34 / 0.63 / 0.75 / 0.45 / 0.59 / 0.72", "log10 Kd (nM), mean": "0.75", "control signals": "0/18"}
{"CDR-L1": "KITQTMRFEQKQKNNIA", "CDR-L2": "EVTTRSK", "CDR-L3": "QQYYRLPLA", "log10 Kd (nM) by replicate": "1.22 / 1.08 / 0.77 / 0.51 / 0.83 / 0.95", "log10 Kd (nM), mean": "0.89", "control signals": "2/18 (2.79)"}
{"CDR-L1": "KLSGIMRVESKKSNSIA", "CDR-L2": "EMTTRGE", "CDR-L3": "QQYDRLPLS", "log10 Kd (nM) by replicate": "0.89 / 0.65 / 0.34 / 1.00 / 0.79 / 0.43", "log10 Kd (nM), mean": "0.68", "control signals": "1/18 (2.34)"}
{"CDR-L1": "TLGGAMLTQMHNKNSVA", "CDR-L2": "DLTTRGN", "CDR-L3": "QQYHRLPLS", "log10 Kd (nM) by replicate": "0.65 / 0.59 / 0.31 / 0.54 / 0.46 / 0.63", "log10 Kd (nM), mean": "0.53", "control signals": "0/18"}
{"CDR-L1": "KISELMNFAQFNKQSIA", "CDR-L2": "EVSTRSK", "CDR-L3": "QSYNRLPLS", "log10 Kd (nM) by replicate": "1.63 / 1.30 / 1.17 / 2.03 / 1.38 / 1.71", "log10 Kd (nM), mean": "1.54", "control signals": "2/18 (2.96)"}
{"CDR-L1": "MISQVMNTLTRNGQNVA", "CDR-L2": "DLQNRED", "CDR-L3": "QQYFRLPLS", "log10 Kd (nM) by replicate": "1.09 / 0.92 / 1.01 / 0.81 / 0.87 / 0.71", "log10 Kd (nM), mean": "0.90", "control signals": "0/18"}
{"CDR-L1": "TIGQMLMQGIRNRSNVA", "CDR-L2": "EVSERLN", "CDR-L3": "QQYDRLPLA", "log10 Kd (nM) by replicate": "0.92 / 0.77 / 0.98 / 0.69 / 1.39 / 1.43", "log10 Kd (nM), mean": "1.03", "control signals": "0/18"}
{"CDR-L1": "KLYSVTGTEKVLGNNVA", "CDR-L2": "EMETRER", "CDR-L3": "QQYNRLPLS", "log10 Kd (nM) by replicate": "0.08 / 0.78 / -0.15 / 0.23 / 0.18 / -0.06", "log10 Kd (nM), mean": "0.18", "control signals": "0/18"}
{"CDR-L1": "HITYGMMVLGRHSKSIA", "CDR-L2": "QAETRAK", "CDR-L3": "QQYDRLPLI", "log10 Kd (nM) by replicate": "1.45 / 1.76 / 1.42 / 1.68 / 1.75 / 2.03", "log10 Kd (nM), mean": "1.68", "control signals": "3/18 (4.03)"}
{"CDR-L1": "MISQLYNMGQFAINSVA", "CDR-L2": "QASLRCN", "CDR-L3": "QQYDRLPLE", "log10 Kd (nM) by replicate": "2.08 / 2.53 / n.d. / 2.11 / 1.80 / 1.95", "log10 Kd (nM), mean": "2.09", "control signals": "0/18"}
{"CDR-L1": "TISGVMQQMTHSKSNVA", "CDR-L2": "EVSTRLE", "CDR-L3": "QQYVRLPLA", "log10 Kd (nM) by replicate": "0.37 / 0.08 / 0.00 / 0.02 / 0.08 / 0.66", "log10 Kd (nM), mean": "0.20", "control signals": "0/18"}
{"CDR-L1": "TISQVMNTLTRNGNNVA", "CDR-L2": "DLQNRED", "CDR-L3": "QQYFRLPLS", "log10 Kd (nM) by replicate": "0.40 / -0.12 / 0.40 / -0.20 / 0.00 / 0.20", "log10 Kd (nM), mean": "0.11", "control signals": "0/18"}
{"CDR-L1": "KLSMITGHMSTVKNNVA", "CDR-L2": "EMETREN", "CDR-L3": "QQYNRLPLA", "log10 Kd (nM) by replicate": "0.16 / 0.28 / 0.28 / 0.08 / 0.13 / 0.17", "log10 Kd (nM), mean": "0.18", "control signals": "2/18 (2.18)"}
{"CDR-L1": "TISQMTSSFSMNINNVA", "CDR-L2": "EVSTRCK", "CDR-L3": "QQYDRLPLA", "log10 Kd (nM) by replicate": "0.89 / 1.10 / 1.20 / 0.97 / 0.93 / 1.23", "log10 Kd (nM), mean": "1.05", "control signals": "0/18"}
{"CDR-L1": "MIGEMLMQGAYKRNSVA", "CDR-L2": "QANIRAQ", "CDR-L3": "QHYNRLPLE", "log10 Kd (nM) by replicate": "1.47 / 1.74 / 1.83 / 1.81 / 1.19 / 1.75", "log10 Kd (nM), mean": "1.63", "control signals": "1/18 (2.39)"}

Excerpt, the first 4 entries:

{"CDR-L1": "MVTQMAMSGMTNKRSVA", "CDR-L2": "NAETREY", "CDR-L3": "QQYHRLPLI", "log10 Kd (nM) by replicate": "0.53 / 0.65 / 0.83 / 0.41 / 0.80 / 1.00", "log10 Kd (nM), mean": "0.70", "control signals": "0/18"}
{"CDR-L1": "MISQLMNMGQFAINSVA", "CDR-L2": "QASLRNE", "CDR-L3": "QQYDRLPLA", "log10 Kd (nM) by replicate": "1.24 / 1.69 / 2.54 / 0.67 / 2.03 / 0.74", "log10 Kd (nM), mean": "1.48", "control signals": "1/18 (1.38)"}
{"CDR-L1": "KLTSVTGQEKVRGNNVA", "CDR-L2": "EMETREN", "CDR-L3": "QQYDRLPLS", "log10 Kd (nM) by replicate": "0.89 / 1.07 / 0.79 / 0.91 / 0.82 / 1.24", "log10 Kd (nM), mean": "0.95", "control signals": "3/18 (3.62)"}
{"CDR-L1": "MIYGMDRELGRAANSIA", "CDR-L2": "DNVTRYD", "CDR-L3": "QQYERLPLS", "log10 Kd (nM) by replicate": "n.d. / 2.22 / 2.22 / 1.98 / 2.07 / 2.03", "log10 Kd (nM), mean": "2.10", "control signals": "2/18 (2.37)"}

In the paper, a design with two or fewer of six values counts as a poor binder.
Values of this round are not directly comparable with the first-round values of the same sequences.